Target: human metabotropic glutamate receptor 2 (mGluR2) (Homo sapiens, UniProt Q14416)
Assay: [35S]GTPγS binding assay (Affinity to mGluR2)
Details: read-out: GTPγS binding assay IC50; cell membrane fraction of HEK293 cells stably expressing human mGluR2; glutamic acid 10 μM
Method: (Preparation of Cell Membrane Fraction of HEK293 Cells Stably Expressing Human Metabotropic Glutamate Receptor 2 (mGluR2))
HEK293 cells stably expressing human mGluR2 and human glutamate transporter SLC1A3 were cultured in a Dulbecco's modified Eagle's medium with 10% fetal bovine serum (50 units/mL of penicillin, 50 μg/mL of streptomycin, 60 μg/mL of geneticin, 400 μg/mL of hygromycin B and 2 mM of glutamine) at 37° C. under 5% CO2. Confluent cell cultures were washed twice with PBS(−), and then scraped off with a cell scraper, and subjected to centrifugal separation at 4° C. and 1500 rpm for 5 minutes for collecting cells. The centrifuged sediment (cell pellet) was homogenized in a 20 mM HEPES buffer containing 10 mM EDTA (pH 7.4) by using sonicator and centrifuged at 4° C. and 1500×g for 30 minutes. […]
The frozen cell membrane fraction prepared as described above was thawed before use, and the resultant was diluted with a buffer for a binding assay (final concentrations: 20 mM HEPES, 100 mM NaCl, 1 mM MgCl2, 3 μM GDP, 300 μg/mL saponin, 0.1% BSA). […] After the incubation, the plate was subjected to the centrifugal separation at 2,500 rpm and room temperature, and then, membrane cell binding radioactivity was measured with a top count. […]

Protein sequences, listed by entry. Tags and fused reporters are not part of them. Residues count along the entry.
UniProt Q14416, 19-872 limits assumed: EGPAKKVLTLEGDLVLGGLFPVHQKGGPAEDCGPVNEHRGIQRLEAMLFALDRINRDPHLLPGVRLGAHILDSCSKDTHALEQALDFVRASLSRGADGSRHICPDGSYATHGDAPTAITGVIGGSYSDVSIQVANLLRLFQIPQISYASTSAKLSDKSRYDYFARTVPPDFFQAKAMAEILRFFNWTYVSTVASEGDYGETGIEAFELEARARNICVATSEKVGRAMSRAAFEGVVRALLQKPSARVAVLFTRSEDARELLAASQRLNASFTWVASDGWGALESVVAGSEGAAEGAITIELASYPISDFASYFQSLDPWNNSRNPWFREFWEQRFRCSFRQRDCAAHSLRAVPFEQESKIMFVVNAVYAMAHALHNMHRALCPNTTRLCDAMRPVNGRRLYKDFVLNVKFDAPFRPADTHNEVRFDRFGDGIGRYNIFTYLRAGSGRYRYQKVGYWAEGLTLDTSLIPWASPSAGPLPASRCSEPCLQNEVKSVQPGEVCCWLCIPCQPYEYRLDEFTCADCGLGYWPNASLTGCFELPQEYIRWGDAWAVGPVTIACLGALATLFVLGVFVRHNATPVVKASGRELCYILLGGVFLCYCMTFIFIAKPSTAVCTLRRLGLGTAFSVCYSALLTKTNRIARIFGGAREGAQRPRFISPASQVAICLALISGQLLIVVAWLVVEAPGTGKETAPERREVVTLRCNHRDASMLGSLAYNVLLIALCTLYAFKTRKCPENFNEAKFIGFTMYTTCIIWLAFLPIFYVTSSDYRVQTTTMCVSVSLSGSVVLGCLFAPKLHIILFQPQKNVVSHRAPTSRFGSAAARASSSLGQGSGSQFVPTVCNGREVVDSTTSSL

In the case of `CCOc1ccc(-c2nc(-c3ccc(S(=O)(=O)NC(C)C)cc3)c3n2C[C@@H](CF)OCC3)cc1`, the IC50 is reported as 3.6 nM.
